Reference: patent US10792377B2, “Compounds and method for imaging cancer” (Vanderbilt University, priority 2017, dated 2020)

Target: T1, murine COX-2 (Mus musculus, UniProt Q05769)
T1 sequence (Q05769 18-604): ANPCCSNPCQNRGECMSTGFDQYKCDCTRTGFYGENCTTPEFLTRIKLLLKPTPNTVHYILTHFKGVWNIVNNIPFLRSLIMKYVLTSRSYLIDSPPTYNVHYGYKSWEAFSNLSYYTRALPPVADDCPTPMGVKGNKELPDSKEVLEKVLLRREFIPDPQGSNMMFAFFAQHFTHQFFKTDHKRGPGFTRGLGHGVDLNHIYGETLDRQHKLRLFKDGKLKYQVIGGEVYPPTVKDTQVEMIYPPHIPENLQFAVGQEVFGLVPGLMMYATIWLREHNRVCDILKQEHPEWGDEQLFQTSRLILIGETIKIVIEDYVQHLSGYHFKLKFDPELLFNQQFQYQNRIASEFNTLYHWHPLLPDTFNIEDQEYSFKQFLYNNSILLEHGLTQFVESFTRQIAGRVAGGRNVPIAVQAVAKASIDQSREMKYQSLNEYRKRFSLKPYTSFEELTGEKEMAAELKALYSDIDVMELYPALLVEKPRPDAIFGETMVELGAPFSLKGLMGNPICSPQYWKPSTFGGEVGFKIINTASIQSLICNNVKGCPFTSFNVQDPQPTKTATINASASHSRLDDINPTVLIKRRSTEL
Experiment: In vitro purified COX-2 inhibition assay (TLC, 14C-arachidonic acid)
Format: biochemical
Settings: high throughput screening of fluorocoxib and chemocoxib libraries
Method: The in vitro cyclooxygenase (ovine COX-1 or human COX-2) inhibitory activities of these probes were tested by a previously described TLC assay (FIGS. 19-21). Briefly, reaction mixtures of 200 μL consisted of hematin-reconstituted protein in 100 mM Tris-HCl, pH 8.0, 500 μM phenol, and [1-^14C]arachidonic acid (50 μM, about 55-57 mCi/mmol, Perkin Elmer).
Inhibition Assay Using Purified COX-1 and COX-2. Inhibition of purified ovine COX-1 or mouse COX-2 by test compounds was assayed by a previously described method, which quantifies the conversion of [1-^14C]arachidonic acid to [1-^14C]prostaglandin products. Reaction mixtures of 200 ∝L consisted of hematin-reconstituted protein in 100 mM Tris-HCl, pH 8.0, 500 μM phenol, and [1-^14C]arachidonic acid (50 μM, ˜55-57 mCi/mmol, Perkin Elmer). For the time-dependent inhibition assay, hematin-reconstituted COX-1 ([…]) was preincubated at 25° C. for 17 min and 37° C. for 3 min with varying inhibitor concentrations in dimethylsulfoxide followed by the addition of [1-^14C]arachidonic acid (50 μM) for 30 s at 37° C. Reactions were terminated by solvent extraction in diethyl ether:methanol:1 M citrate buffer, pH 4.0 (30:4:1). […] Radiolabeled products were quantified with a radioactivity scanner (Bioscan, Inc., Washington, D.C.). […]

For COc1ccc2c(c1)c(CC(=O)NCCCCNC(=O)CCC(=O)O[C@H]1c3cc4c(cc3[C@@H](c3cc(OC)c(OC)c(OC)c3)[C@H]3C(=O)OC[C@@H]31)OCO4)c(C)n2C(=O)c1ccc(Cl)cc1 [chemocoxib A, reference compound], the IC50 was 290 nM.
